Columns and labels:
[1] = cited from earlier work
solubility in water = assay type: physicochemical

Substance | solubility in water (parts of water needed to dissolve) ([1]; 20° C., slowly dissolves) | solubility in water with complexing agent ([1]; adding a complexing agent like boric acid) [% by weight] | solubility over pH range (solubility in water; broad range of pH values) | saturated aqueous solution concentration (solubility in water; water, 20° C.) [% by weight]
D-gluconic acid calcium salt [Calcium gluconate] | 30 parts of water | ≥ 20 |  | 
calcium 3-hydroxy-3-methylbutyrate [CaHMB] |  |  | remain highly soluble | 27
